Measured values reported in publication PMC7347020 (Science (New York, N.Y.), 2020).

Sequences of proteins named here, by UniProt entry; tags and fusion partners are left off.
UniProt P09874, whole entry: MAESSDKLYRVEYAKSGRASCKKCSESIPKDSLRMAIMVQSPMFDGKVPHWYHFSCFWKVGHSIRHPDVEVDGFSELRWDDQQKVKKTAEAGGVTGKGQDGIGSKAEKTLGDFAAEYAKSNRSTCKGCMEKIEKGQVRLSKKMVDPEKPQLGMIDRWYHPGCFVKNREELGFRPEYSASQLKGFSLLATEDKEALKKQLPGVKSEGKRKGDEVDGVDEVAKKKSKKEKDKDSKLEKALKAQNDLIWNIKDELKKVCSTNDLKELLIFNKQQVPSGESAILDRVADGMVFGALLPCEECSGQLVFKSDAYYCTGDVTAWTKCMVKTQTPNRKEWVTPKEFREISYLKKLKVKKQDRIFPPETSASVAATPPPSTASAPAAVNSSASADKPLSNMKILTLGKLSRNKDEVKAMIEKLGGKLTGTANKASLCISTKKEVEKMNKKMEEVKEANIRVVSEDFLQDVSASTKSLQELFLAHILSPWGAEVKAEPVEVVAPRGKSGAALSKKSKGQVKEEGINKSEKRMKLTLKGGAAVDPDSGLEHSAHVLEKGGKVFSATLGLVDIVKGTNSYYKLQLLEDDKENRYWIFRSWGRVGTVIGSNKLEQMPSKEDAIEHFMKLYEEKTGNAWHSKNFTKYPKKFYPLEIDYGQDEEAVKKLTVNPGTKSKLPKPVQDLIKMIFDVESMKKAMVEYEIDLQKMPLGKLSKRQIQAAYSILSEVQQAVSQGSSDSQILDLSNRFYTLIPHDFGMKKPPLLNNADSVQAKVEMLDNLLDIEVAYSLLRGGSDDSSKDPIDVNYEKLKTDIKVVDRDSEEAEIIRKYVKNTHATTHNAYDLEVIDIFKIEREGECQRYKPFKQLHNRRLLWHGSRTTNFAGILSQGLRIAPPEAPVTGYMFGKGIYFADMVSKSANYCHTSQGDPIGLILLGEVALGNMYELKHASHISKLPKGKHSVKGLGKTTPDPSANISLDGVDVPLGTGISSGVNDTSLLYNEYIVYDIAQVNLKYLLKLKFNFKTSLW

Assays:
PARP-1 [1] = target: T1, PARP-1 (Homo sapiens, UniProt P09874); assay: FP DNA binding affinity of PARP-1 for SSB-DNA
PARP-1 [2] = target: T1, PARP-1; assay: SPR dissociation kinetics of PARP-1 from SSB-DNA; assay type: binding
PARP-1 [3] = target: T1, PARP-1; assay: HXMS of WT PARP-1/SSB-DNA complex; details: PARP-1/SSB-DNA complex with versus without inhibitor
PARP-1 [4] = target: T1, PARP-1; assay: Classification of PARPi by allosteric effects; details: based on HXMS and DNA binding studies

## Cn1ncnc1[C@H]1c2n[nH]c(=O)c3cc(F)cc(c23)N[C@@H]1c1ccc(F)cc1 [talazoparib]
PARP-1 [1]
  influence on PARP-1 SSB DNA binding affinity (in words): only a small increase in affinity
PARP-1 [2]
  influence on dissociation (kd) of PARP-1 from a DNA break (in words): slowed release to a smaller extent
PARP-1 [3]
  allosteric effect on PARP-1 (HX changes): minor increases in exchange in the helical domain (HD) in the αC and αF helices
PARP-1 [4]
  PARPi type by allosteric effect: Type II
